Patent US20250339403A1, “Tryptamine Formulations and Uses Thereof” (Natural MedTech Pty Ltd, priority 2022, published 2025)

Amino acid sequences for entries named in this document (tags omitted).
UniProt P14842, whole entry: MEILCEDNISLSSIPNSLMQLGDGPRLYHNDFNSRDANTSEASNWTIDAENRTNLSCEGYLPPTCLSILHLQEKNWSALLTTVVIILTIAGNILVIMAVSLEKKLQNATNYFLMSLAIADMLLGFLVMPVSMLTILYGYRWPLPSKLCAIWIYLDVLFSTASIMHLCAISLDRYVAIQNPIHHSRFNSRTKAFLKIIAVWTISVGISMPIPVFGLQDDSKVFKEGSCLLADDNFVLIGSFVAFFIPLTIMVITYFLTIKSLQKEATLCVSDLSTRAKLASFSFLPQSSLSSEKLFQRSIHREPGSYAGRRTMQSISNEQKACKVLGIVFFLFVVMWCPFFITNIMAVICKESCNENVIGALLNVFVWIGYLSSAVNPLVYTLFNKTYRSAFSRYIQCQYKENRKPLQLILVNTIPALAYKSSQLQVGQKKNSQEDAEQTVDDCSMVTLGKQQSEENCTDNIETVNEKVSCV

Target: 5-HT2A receptors (Rattus norvegicus, UniProt P14842)
Assay: Head shake response in rats over 30 minutes
Details: compared with control rats and rats also given Moclobemide

Q: How did the “number of head shakes, tryptamine administered alone” value turn out when CN(C)CCc1c[nH]c2ccccc12 [DMT, N,N-dimethyltryptamine] was run?
A: higher than the control rats and those that were also given Moclobemide
